Experimental data published in PubChem BioAssay AID1778 (Sanford-Burnham Center for Chemical Genomics, 2009).
Some of the results follow. Results with a measured potency or affinity are listed apart. Activity calls are given as the source filed them. Rule as the data show it: active = inhibition above about 50%; inactive = the rest.

Amino acid sequences for entries named in this document (tags omitted). A change or cut given only in a name is not applied to a line headed by its entry.
UniProt P41145: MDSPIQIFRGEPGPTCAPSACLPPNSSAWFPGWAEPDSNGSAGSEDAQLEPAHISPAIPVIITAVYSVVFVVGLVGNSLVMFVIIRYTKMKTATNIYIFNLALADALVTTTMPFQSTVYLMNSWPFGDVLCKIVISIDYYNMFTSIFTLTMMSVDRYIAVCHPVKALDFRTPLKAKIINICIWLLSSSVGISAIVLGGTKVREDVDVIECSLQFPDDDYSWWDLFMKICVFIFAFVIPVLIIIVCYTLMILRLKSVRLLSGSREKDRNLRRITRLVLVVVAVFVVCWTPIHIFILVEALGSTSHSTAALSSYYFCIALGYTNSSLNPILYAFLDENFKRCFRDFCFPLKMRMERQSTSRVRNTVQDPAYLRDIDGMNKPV

Molecular target: Kappa-type opioid receptor (Homo sapiens) (UniProt P41145)
Test: kappa opioid receptor blockers – cell-based, luminescence, uHTS (AID 1778)
Conditions: KOR beta-arrestin recruitment, antagonist mode, at 10 µM, hits give high values

Compound	inhibition
O=C(Cn1c(CO)nc2ccccc21)NCCc1ccc(F)cc1	inactive: 11.6%
CC(C)[C@H](NC(=O)N1CCn2c1nc1ccccc12)C(=O)NCC1CCCO1 (some centres not stated)	inactive: -34.5%
O=C(NC(Sc1ccncn1)C(Cl)(Cl)Cl)c1ccccc1 (configuration not stated)	inactive: 37.2%
CCCCCCNCCn1cnc2c(N)ncnc21	inactive: -8.6%
CCc1cccc(CC)c1NC(=O)Cn1c(-c2ccccc2Cl)nc2ccccc21	inactive: -10.1%
COCCCNC(=O)CC1C(=O)N(Cc2ccccc2)C(C)c2nc3ccccc3n21 (configuration not stated)	inactive: 12.3%
Cc1ccccc1C(=O)Nc1cccc(NC(=O)Cn2cnc3c(=O)n(C)c(=O)n(C)c32)c1	inactive: -34.4%
N=c1n(CCOc2ccccc2)c2ccccc2n1CCN1CCOCC1	inactive: 0.1%
CC(C)CC(=O)NC(Sc1ccc(Cl)cc1)C(Cl)(Cl)Cl (configuration not stated)	inactive: -15%
CSCC[C@H](NC(=O)N1CCn2c1nc1ccccc12)C(=O)NCc1ccc(C)cc1	inactive: -22.2%
O=C(Nc1nc2ccccc2n1CCN1CCOCC1)c1ccc(Cl)cc1	inactive: 11%
Nc1cc(N)c2nonc2c1[N+](=O)[O-]	inactive: 24.1%
COc1cccc(/C=N/NC(=O)Cn2cnc3c2c(=O)n(C)c(=O)n3C)c1OC	inactive: 19.4%
CCC(=O)Nc1ccc2c(c1)nc1n2CCN(CCOC)C1	inactive: 17.1%
CCCCNc1nc2ccccc2n1CC(=O)N1CCc2ccccc2C1	inactive: 29.1%
C=CCOC(=O)C1=C(C)N=C2SCCC(=O)N2C1/C=C/c1ccccc1OC (configuration not stated)	inactive: -20.1%
O=C1Cn2c(nc3ccccc32)N1c1ccccc1F	inactive: 12.3%
N=c1n(CCCOc2ccc(F)cc2)c2ccccc2n1CC(N)=O	inactive: 13.5%
Cc1n[nH]c(C)c1CCC(=O)N/N=C/C=C/c1ccccc1	inactive: 11.6%
CCCn1c(=O)[nH]c(=O)c2c1nc(-c1ccccc1)n2CCN1CCOCC1	inactive: -19.5%
CCCCC(=O)N/N=C(C)/C=C/c1ccccc1F	inactive: -13.5%
CCOc1ccc(C(O)Cn2c(=N)n(CCN3CCCCC3)c3ccccc32)cc1 (configuration not stated)	inactive: -23.1%
Cn1c(=O)c2ncn(CC(=O)NCCC3=CCCCC3)c2n(C)c1=O	inactive: -11.8%
Cc1nc2ccc(NC(=O)Cn3cnc4c3c(=O)n(C)c(=O)n4C)cc2s1	inactive: 10.1%

Compound	inhibition
CC1CCCC(C)N1C(=O)Cn1c(SCC(=O)NCc2ccc3c(c2)OCO3)nc2ccccc21 (configuration not stated)	inactive: -5.2%
O=C(Cn1c(-c2cscn2)nc2ccccc21)Nc1ccc(Cl)cc1	inactive: -31.5%
N#CCC(=O)N/N=C\c1cc(Br)ccc1OC/C=C/c1ccccc1	inactive: 3.7%
Cc1ccc(SCc2nc3ccccc3n2CC(=O)Nc2ccccc2)cc1	inactive: -8.2%
Cc1ccc2c(c1)C1CN(C)CCC1N2S(=O)(=O)c1ccc(Oc2ccc([N+](=O)[O-])cc2)cc1 (configuration not stated)	inactive: -25.9%
Cc1cc(NC(=O)CSc2nc3ccccc3n2CC(=O)N2CC(C)CC(C)C2)no1 (configuration not stated)	inactive: 16.6%
CCOC(=O)CSc1nc2ccccc2n1CC(=O)N1CCN(c2ccccc2)CC1	inactive: -25.6%
c1ccc(CN2CCC3(CC2)Nc2ccccc2CO3)cc1	inactive: -13.7%
Cn1c(=O)c2c(ncn2CC(=O)N2CCN(c3ccccc3F)CC2)n(C)c1=O	inactive: -2%
N=c1n(CCN2CCCCC2)c2ccccc2n1CC(O)c1ccco1 (configuration not stated)	inactive: 20%
O=C(Cn1c(NCCO)nc2ccccc21)N1CCN(Cc2ccccc2)CC1	inactive: 4.9%
Cn1c(=O)c2c(ncn2CC(=O)Nc2ccccc2)n(C)c1=O	inactive: -10.5%
Nc1ccccc1CNc1nc(NCCO)nc2c1ncn2CCN1CCOCC1	inactive: 18.9%
CCC(C)[C@H](NC(=O)N1CCn2c1nc1ccccc12)C(=O)NCCc1ccccc1 (some centres not stated)	inactive: -3.7%
O=C(NC1CCCCC1)N1CCC(n2c(=O)[nH]c3ccccc32)CC1	inactive: -1.8%
Cn1c(=O)c2c(nc(Sc3nc4ccccc4n3CC(=O)N3CCCCC3)n2C)n(C)c1=O	inactive: -23%
COc1ccc(C2=NCC(CBr)S2)cc1 (configuration not stated)	inactive: 1.5%
CCN(CC)CCn1c(=N)n(CCO)c2ccccc21	inactive: 40%
Cn1c(=O)c2c(ncn2CC(=O)N/N=C/c2ccco2)n(C)c1=O	inactive: -2.6%
CC(=O)N1CCc2cc(S(=O)(=O)NC(CC(C)C)C(=O)N3CCn4c3nc3ccccc34)ccc21 (configuration not stated)	inactive: 22.9%
Cc1ccc(NP(=O)(Oc2ccccc2)Oc2ccccc2)nc1	inactive: -12.6%
O=[N+]([O-])c1ccc(NC2CCN(Cc3ccccc3)CC2)c([N+](=O)[O-])c1	inactive: 27.3%
CC1CC(C)CN(C(=O)Cn2c(-c3nonc3N)nc3ccccc32)C1 (configuration not stated)	inactive: 14.1%
